Target: D(2) dopamine receptor (Homo sapiens, UniProt P14416)
Assay type: cell-based

Chains of the proteins cited; added tags and fusions are not shown.
UniProt P14416, whole entry: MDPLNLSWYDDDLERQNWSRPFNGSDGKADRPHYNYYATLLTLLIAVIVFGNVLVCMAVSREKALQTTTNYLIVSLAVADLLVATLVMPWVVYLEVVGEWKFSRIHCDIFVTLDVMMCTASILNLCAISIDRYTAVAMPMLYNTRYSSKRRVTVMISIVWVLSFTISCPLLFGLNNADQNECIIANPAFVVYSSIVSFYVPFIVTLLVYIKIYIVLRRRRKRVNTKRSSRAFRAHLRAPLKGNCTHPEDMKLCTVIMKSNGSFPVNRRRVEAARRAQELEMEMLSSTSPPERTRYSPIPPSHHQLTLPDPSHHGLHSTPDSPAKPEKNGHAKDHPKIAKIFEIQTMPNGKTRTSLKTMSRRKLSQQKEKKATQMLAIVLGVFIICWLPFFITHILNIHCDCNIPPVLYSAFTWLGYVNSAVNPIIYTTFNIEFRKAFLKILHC

IC50: 2.06 nM
SMILES: O=c1ccc2ccc(CCCCCN3CCN(c4cccc5sccc45)CC3)cc2[nH]1

Source: ChEMBL document CHEMBL5726152, “Heterocyclic compounds, process for preparation of the same and use thereof” (2019)
